Laboratory results reported in ChEMBL document CHEMBL3585347, “Isolation of cholinesterase and β-secretase 1 inhibiting compounds from Lycopodiella cernua” (Bioorg Med Chem, 2015).

Protein sequences, listed by entry. Tags and fused reporters are not part of them. Lines headed by an entry give the natural chain unless they say otherwise; changes in a name come on top.
UniProt P22303: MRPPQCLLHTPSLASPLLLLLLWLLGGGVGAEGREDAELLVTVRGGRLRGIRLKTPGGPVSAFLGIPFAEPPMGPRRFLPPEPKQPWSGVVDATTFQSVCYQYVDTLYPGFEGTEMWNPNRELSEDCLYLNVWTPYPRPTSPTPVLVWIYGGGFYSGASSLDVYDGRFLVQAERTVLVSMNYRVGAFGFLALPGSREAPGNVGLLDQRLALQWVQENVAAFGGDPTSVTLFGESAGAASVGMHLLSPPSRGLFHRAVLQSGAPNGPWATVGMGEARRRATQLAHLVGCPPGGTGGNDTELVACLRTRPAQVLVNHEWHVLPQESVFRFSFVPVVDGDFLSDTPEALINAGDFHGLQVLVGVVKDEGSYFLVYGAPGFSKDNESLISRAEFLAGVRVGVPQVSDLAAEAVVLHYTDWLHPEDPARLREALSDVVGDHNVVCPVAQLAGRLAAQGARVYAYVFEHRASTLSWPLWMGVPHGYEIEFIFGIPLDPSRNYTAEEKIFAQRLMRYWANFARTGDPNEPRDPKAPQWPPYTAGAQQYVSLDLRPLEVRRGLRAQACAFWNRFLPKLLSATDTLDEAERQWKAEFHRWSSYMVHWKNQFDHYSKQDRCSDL

Biological target: Acetylcholinesterase (Homo sapiens, UniProt P22303)
Experiment: Inhibition of AChE (unknown origin) using acetylthiocholine as substrate assessed as substrate hydrolysis by spectrophotometric/Ellman method

Work on COc1ccc2cc3[n+](cc2c1OC)CCc1cc2c(cc1-3)OCO2 [BERBERINE] yielded an IC50 of 100 nM.
